In patent publication US8097722B2 (priority 2008, dated 2012):

What was measured:
liver PMPMEase = experiment: Inhibition of liver PMPMEase by OPs (liver 40,000xg supernatant); assay type: biochemical, porcine; settings: 1 mM OP, 1 h, 37° C., liver 40,000×g supernatant (19 μg protein), N=3
brain PMPMEase = experiment: Inhibition of brain PMPMEase by OPs (brain membrane Triton X-100 extract); assay type: biochemical, porcine; settings: 1 mM OP, 3 h, 37° C., brain membrane Triton X-100 extract (47 μg protein), N=3

Compound | Liver Mean (mean percent inhibition relative to the controls) (liver PMPMEase) [%] | Brain Mean (mean percent inhibition relative to the controls) (brain PMPMEase) [%]
Fonofos | 66 | 100
CC(C)OP(=S)(OC(C)C)SCCNS(=O)(=O)c1ccccc1 | 76 | 82
